High-throughput results (PubChem)
Shown are actives, neighbours in structure and some others; about 1.5% of the full set was active somewhere.
FN deposition inh – fibronectin deposition inhibition. AH1F fibroblasts, Alexa488-fibronectin deposition fluorescence, overnight. inhibition, % at 12.6 µM. 0.086% of 350,000 active;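 active = mean inhibition across replicates of 30% or more, regardless of how many single replicates reach that level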
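Assay system: AH1F fibroblasts / Quantity: 10000 cells per well / Medium: DMEM plus 2% serum, read in PBS / Reagent: labelled fibronectin 24 nM / Dosing: single dose, pinned / Times: 1 h cell attachment, overnight exposure to compound and label / Signal: fluorescence, ex 485 nm, em 525 nm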
PGC1a acetyl inh – modulators of PGC1a acetylation; AID 651687; inhibition, % at 15.6 µM; 0.17% of 350,000 active; U2OS PGC1a acetylation, AlphaScreen anti-acetyl-lysine; with virally co-expressed GCN5 acetyltransferase;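 active = every replicate shows inhibition of at least 40%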
miR122 inh – blocks miR-122 activity in Huh7 sensor cells | 0.3% of 340,000 active | AID 602342 | Huh7 miR-122 Renilla luciferase sensor, 48 h; neutral wells = 0, positive control = 100 | activation (reporter increase), % at 12.5 µM;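 active = mean replicate activation score at least 90 and every replicate individually at or above 90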;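 note: higher luciferase means less miR-122 activity so hits act as miR-122 inhibitors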
Env fusion inh – blocks HIV Env-driven cell-cell fusion; HeLa-JRFL Env/CEM21 cell fusion, luciferase; inhibition, % at 12.3 µM; 1.1% of 360,000 active;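 active = mean replicate inhibition score of at least 50 and every replicate individually at or above 50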
Cneo AK release – causes C. neoformans cell lysis; adenylate kinase release luminescence, 4 h; normalised: neutral wells 0, clomiphene wells 100; lysis activity, % at 15 µM; 0.2% of 360,000 active;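 active = mean lysis activity across replicates of at least 80%, whatever share of replicates individually reach that level; inactive = mean lysis activity below 80%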
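Assay system: log-phase C. neoformans yeast / Quantity: yeast cell density of 5 × 10^6 cells/mL / Medium: fresh YPD growth medium / Compound: single dose / Timing: static 4 h at 37 °C with compound, 1 h detection / Measured by: adenylate kinase release luminescence / Read-out: lysis from increased AK signal / Benchmarks: Clomiphene as positive lysis control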
Yeast UUG start – modulators of start codon recognition fidelity in yeast. S. cerevisiae UUG-firefly luciferase reporter, luminescence/redox ratio. activity score, % at 18.7 µM. 0.13% of 350,000 active. AID 602363;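 active = replicate mean at a twofold rise or more, about +100% in these data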;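 also: firefly luciferase made from a UUG start codon reports start codon fidelity; reporter light over untreated wells divided by growth signal over untreated wells; some hits fall short of that in this replicate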
Hits are given with their value; 0 = inactive; - = no result; [ ] = another dose, or the depositor's remark.

SMILES | FN deposition inh | PGC1a acetyl inh | miR122 inh | Env fusion inh | Cneo AK release | Yeast UUG start
C[C@H](CO)N1C[C@H](C)[C@H](CN(C)C(=O)Nc2cccc3ccccc23)Oc2ccc(NC(=O)Nc3ccccc3)cc2C1=O | - | 0 | 0 | 0 | 101 | 0
C[C@H](CO)N1C[C@H](C)[C@@H](CN(C)C(=O)Nc2cccc3ccccc23)Oc2ccc(NC(=O)Nc3ccccc3)cc2C1=O | - | 0 | 0 | 0 | 0 | 0
C[C@@H]1CN([C@H](C)CO)C(=O)c2cc(NC(=O)Nc3cccc4ccccc34)ccc2O[C@H]1CN(C)C(=O)Nc1ccc(C(F)(F)F)cc1 | - | 0 | 0 | - | 103 | 0
C[C@@H]1CN([C@H](C)CO)C(=O)c2cc(NC(=O)Cc3cn(C)c4ccccc34)ccc2O[C@@H]1CN(C)C(=O)Nc1ccccc1 | - | 108 | 0 | 0 | 0 | 0
C[C@H](CO)N1C[C@H](C)[C@@H](CN(C)C(=O)Nc2ccc(C(F)(F)F)cc2)Oc2ccc(NC(=O)Nc3cccc4ccccc34)cc2C1=O | - | 0 | 0 | - | 0 | 0
C[C@H](CO)N1C[C@H](C)[C@@H](CN(C)C(=O)Nc2ccccc2)Oc2ccc(NC(=O)Cc3cn(C)c4ccccc34)cc2C1=O | - | 0 | 0 | 0 | 0 | 0
C[C@@H]1CN([C@H](C)CO)S(=O)(=O)c2ccc(-c3cncnc3)cc2O[C@@H]1CN(C)Cc1cncnc1 | - | 0 | 0 | 0 | 0 | 0
NNC(=O)CSc1nc(-c2ccccc2)cn1-c1ccccc1 | 0 | 0 | - | 0 | - | -
Cc1cccc(N(Cc2ccccc2)C(=O)CCl)c1 | - | 0 | - | 0 | - | -
CCN(C(=O)c1ccc(C(C)(C)C)cc1)c1nnc(Cn2nnc3ccccc32)s1 | - | 0 | 0 | - | 0 | 0
O=C(C[C@@H]1CC[C@@H](NC(=O)c2ccncc2)[C@H](CO)O1)NCCc1ccncc1 | 0 | 0 | - | 62[16.7 µM] | 0 | 0
O=C(O)C[C@@H]1CC[C@@H](NC(=O)c2ccncc2)[C@H](CO)O1 | 0 | 0 | 0 | 63[16.7 µM] | 0 | -
NS(=O)(=O)c1ccc(CNC(=O)C(c2ccccc2)c2ccccc2)cc1 | 0 | 0 | 0 | 0 | 0 | 0
O=C(CCc1ccc(S(=O)(=O)NC2CCCCC2)cc1)Nc1ccccc1 | - | 0 | 0 | - | 0 | 0
O=C(CN1CCCC1)NCC12CC3CC(CC(C3)C1)C2 | - | 0 | 0 | - | - | -
CCC(=O)N[C@H]1CC[C@H](CC(=O)NCc2cc(F)cc(F)c2)O[C@H]1CO | 0 | 0 | 0 | 0 | 0 | 0
FC(F)(F)c1cc(-c2ccco2)nc(NCc2cccnc2)n1 | 0 | 0 | 0 | 0 | 0 | 0
FC(F)(F)c1cc(-c2ccccc2)nc(NCc2cccnc2)n1 | active | 0 | 0 | 0 | 0 | 0
CCCCn1c(NC(=O)c2ccc(Br)o2)c(S(=O)(=O)c2ccccc2)c2nc3ccccc3nc21 | - | 0 | 165 | 0 | 0 | 0
CCCCn1c(NC(=O)c2ccco2)c(S(=O)(=O)c2ccc(C)cc2)c2nc3ccccc3nc21 | 0 | - | - | 0 | - | -
Cc1cccc(C(=O)OCC(=O)NCc2ccco2)c1 | 0 | 0 | 0 | 66 | 0 | 0
Cc1ccc(C(=O)OCC(=O)NCc2ccco2)cc1 | 0 | 0 | 0 | 0 | 0 | 0
COCCNC(=O)CCc1c(C)nc2c(c(C)nn2-c2ccc(C)cc2)c1C | 0 | - | - | 0 | 0 | 0
COCCNC(=O)CCc1c(C)nc2c(c(C)nn2-c2ccc(C)c(C)c2)c1C | 0 | 78 | 0 | 0 | 0 | 0
CC1CCN(C(c2ccc(N(C)C)cc2)c2nnnn2Cc2ccc(F)cc2)CC1 (stereo not given) | - | 0 | 0 | - | 0 | 0
SMILES | FN deposition inh | PGC1a acetyl inh | miR122 inh | Env fusion inh | Cneo AK release | Yeast UUG start
Fc1ccc(Cn2nnnc2C(c2ccc(Cl)cc2)N2CCSCC2)cc1 (stereo not given) | 0 | 0 | 0 | 52 | 0 | 0
S=C(Nc1ccc(Cl)cc1)c1nc2ccccc2[nH]1 | 0 | 0 | 0 | 59 | - | 0
COc1ccc2c(OC)cc(-c3ccccc3)nc2c1 | - | 0 | 0 | - | 0 | 0
O=C(O)c1ccc(N/N=C/c2ccc3nccnc3c2)cc1 | 0 | 0 | 0 | 75 | - | -
OC(CNCc1ccc2c(c1)OCO2)COc1ccc(F)cc1 (stereo not given) | 0 | 0 | 0 | 0 | 0 | 0
C[C@H](CO)N1C[C@H](C)[C@H](CN(C)S(=O)(=O)c2ccccc2)Oc2ccc(NS(=O)(=O)c3ccc(F)cc3)cc2C1=O | - | 0 | 0 | 0 | 104 | 0
Cc1ccc(S(=O)(=O)Nc2ccc3c(c2)C(=O)N([C@H](C)CO)C[C@@H](C)[C@H](CN(C)S(=O)(=O)c2ccc(F)cc2)O3)cc1 | - | 0 | 0 | 60[16.7 µM] | - | -
O=C(c1ccccc1)C(CN1CCCCC1)c1ccccc1 (stereo not given) | 0 | 0 | 0 | 0 | 0 | 0
O=C(N/N=C/c1ccccc1C(=O)O)c1ccc(COc2cccc3cccnc23)cc1 | 0 | 0 | - | 0 | - | -
O=C(N/N=C/c1ccc[nH]1)c1ccc(COc2cccc3cccnc23)cc1 | 0 | 0 | 0 | 71 | 0 | 0
O=C(N/N=C/c1ccc[nH]1)c1ccc(O)cc1 | 0 | 0 | - | 0 | - | -
Cc1cc(Br)c(OCc2ccc(C(=O)N/N=C/c3ccc[nH]3)cc2)c(Br)c1 | 0 | 87 | 0 | 91 | 0 | 0
C[C@H]1CN([C@@H](C)CO)C(=O)c2cc(C#CC3CC3)cnc2O[C@@H]1CN(C)C(=O)CC1CC1 | 0 | 0 | 0 | 0 | 0 | 0
O=C(Nc1cccc(F)c1)NC1(C(=O)N2CCC(O)CC2)CCCCC1 | 0 | 0 | 0 | 0 | 0 | 0
C[C@H]1CN([C@@H](C)CO)C(=O)Cc2cc(NC(=O)C3CCCCC3)ccc2O[C@H]1CN(C)S(=O)(=O)c1ccc(Cl)cc1 | - | 0 | 0 | 74[16.7 µM] | 0 | 0
C[C@H](CO)N1C[C@H](C)[C@H](CN(C)S(=O)(=O)c2ccc(Cl)cc2)Oc2ccc(NC(=O)C3CCCCC3)cc2CC1=O | - | 0 | 0 | 63[16.7 µM] | 0 | 0
CCCCNC(=O)CC1N=C2c3ccccc3N=C(SCC(=O)Nc3ccccc3C)N2C1=O (stereo not given) | 0 | 0 | 0 | 0 | 0 | 0
COCCn1c(C)cc(C2=NNC(=Nc3ccc(Cl)cc3Cl)SC2)c1C | - | 0 | 0 | 0 | 0 | 0
COCCn1c(C)cc(C2=NNC(=NC3CC3)SC2)c1C | 0 | - | - | 57 | - | -
C=CCN=C1NN=C(c2cc(C)n(CCOC)c2C)CS1 | 0 | - | - | 75 | - | -
CNC(=O)CN(c1ccc(OC)cc1)S(=O)(=O)c1ccc(F)cc1 | 0 | 0 | - | 0 | 0 | 0
Cc1ccc2c(c1)c1c3n2CCN(CC(N)=O)C3CCC1 (stereo not given) | 0 | - | - | 81 | 0 | 0
COc1ccc(C(=O)Nc2ccc3nc(N4CCOCC4)sc3c2)cc1OC | 0 | 0 | 0 | - | 0 | 0
CCCn1nc(C(=O)Nc2ccc3nc(N4CCOCC4)sc3c2)ccc1=O | 0 | - | - | 85 | 0 | 0
Cc1ccc(CNC(=O)C2CC(c3ccc([N+](=O)[O-])cc3)=NO2)cc1 (stereo not given) | 0 | 0 | 0 | 0 | 0 | 0
